From patent publication US20110320392A1, “METHODS FOR PREDICTING CANCER RESPONSE TO EGFR INHIBITORS” (priority 2009, published 2011)

System: metastatic colorectal cancer (mCRC)
Test: progression-free survival of cetuximab-treated colorectal cancer patients stratified by Predictive Marker profile
Type: in vivo, human
Protocol: Over 100 CRC patients with colorectal cancer were biopsied from metastatic sites and the mutational status of KRAS was determined and gene expression data generated and reported Khambata-Ford et al.
These reported data were extracted in series matrix format from Gene Expression Omnibus (GEO) record GSE585112. The data from that study were scaled by the authors to mean intensity of 1500. Therefore, the data matrix was multiplied by a factor of 0.333 in order to reflect the mean intensity value of the data used to generate our predictive response (500). This direct linear relationship was confirmed by scaling experimental data to both values using Expression Console (Affymetrix, Santa Clara, Calif.) and observing the ratios on a probe by probe basis. […] The clinical response data and KRAS status were extracted from the supplementary files provided by Khambata-Ford et al.
The Predictive Markers set forth in Table 1 were imported into R for diagonal linear discriminant analysis (“DLDA”) according to Balko et al.
Data were separated into three datasets: KRAS wildtype, KRAS-mutant, or all patients combined. After sensitivity prediction on each of the datasets, the results were imported into Excel (Microsoft, Redmond, Wash.) and cross referenced with response and progression free survival (PFS).
All statistical analyses were performed using Prism (Graphpad, La Jolla, Calif.) and checked using JMP (SAS, Cary, N.C.). For comparisons of median progression free survival, the 2-tailed Mann-Whitney U test was performed between groups predicted to be sensitive and those predicted to be resistant. Kaplan-Meier survival curves were generated based on the PFS data reported by Khambata-Ford et al and analyzed by the log-rank statistic. These analyses were performed on only the KRAS-wildtype patient data first, and then repeated on all patient data as well as the KRAS-mutant population independently for comparison.

[1] = entire cohort regardless of KRAS status, 'resistant' subgroup
[2] = entire cohort regardless of KRAS status, 'sensitive' subgroup
[3] = mCRC KRAS-wildtype patients predicted 'resistant' (180-gene profile)
[4] = mCRC KRAS-wildtype patients predicted 'sensitive' (180-gene profile)

cetuximab
mean PFS [1]: 60.5 days | median PFS [1]: 57.5 days | mean PFS [2]: 104.7 days | median PFS [2]: 60 days | mean PFS [3]: 63 days | median PFS [3]: 56 days | mean PFS [4]: 117 days | median PFS [4]: 88 days
